Biological target: enzyme MGL (monoacyl glycerol lipase) (Mus musculus, UniProt O35678)
Assay: radioenzymatic assay of MGL activity (hydrolysis of [3H]2-oleoylglycerol by mouse brain homogenate)
Assay type: biochemical
Conditions: read-out: IC50 (concentration which inhibits the control enzymatic activity of the MGL by 50%), mouse brain homogenate (37.5 μg protein), 20 min preincubation, 50 μM 2-OG with [3H]2-OG, ambient temperature

Amino acid sequences for entries named in this document (tags omitted).
UniProt O35678, whole entry: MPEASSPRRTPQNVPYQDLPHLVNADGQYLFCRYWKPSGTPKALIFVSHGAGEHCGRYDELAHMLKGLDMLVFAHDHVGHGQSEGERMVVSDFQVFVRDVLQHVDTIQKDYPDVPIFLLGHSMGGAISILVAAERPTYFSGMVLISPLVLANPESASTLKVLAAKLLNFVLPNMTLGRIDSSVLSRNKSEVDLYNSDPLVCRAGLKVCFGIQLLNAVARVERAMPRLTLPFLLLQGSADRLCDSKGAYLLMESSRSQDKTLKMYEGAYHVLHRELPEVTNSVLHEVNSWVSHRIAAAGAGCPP

`O=C(OC(C(F)(F)F)C(F)(F)F)N1CC(CCNS(=O)(=O)c2ccc(Cl)cc2)C1` was tested, and the IC50 was 1.4 nM.

Reference: patent US8835418B2, “Hexafluoroisopropyl carbamate derivatives, their preparation and their therapeutic application” (SANOFI, priority 2010, dated 2014)
